The numbers were not newly measured in article PMC3463759 (Clinical cancer research : an official journal of the …, 2012), which cites them from elsewhere.

The series relates to ovarian cancer cell lines. As to conditions: cited from earlier work.

Regarding `Cc1nc(Nc2ncc(C(=O)Nc3c(C)cccc3Cl)s2)cc(N2CCN(CCO)CC2)n1` [dasatinib, N-(2-chloro-6-methyl-phenyl)-2-(6-(4-(2-hydroxyethyl)-piperazin-1-yl)-2-methylpyrimidin-4-ylamino)thiazole-5-carboxamide], the “activity of the combination” value was “synergistic and additive activity”.
